The source of these data is patent publication US7414062B2, “Triazaspiro compounds useful for treating or preventing pain” (dated 2008).

The chains behind the UniProt entries cited, without tags or fusion partners. Where a name states a change or a piece, a line headed by the entry shows the natural chain unless it says otherwise.
UniProt P41146: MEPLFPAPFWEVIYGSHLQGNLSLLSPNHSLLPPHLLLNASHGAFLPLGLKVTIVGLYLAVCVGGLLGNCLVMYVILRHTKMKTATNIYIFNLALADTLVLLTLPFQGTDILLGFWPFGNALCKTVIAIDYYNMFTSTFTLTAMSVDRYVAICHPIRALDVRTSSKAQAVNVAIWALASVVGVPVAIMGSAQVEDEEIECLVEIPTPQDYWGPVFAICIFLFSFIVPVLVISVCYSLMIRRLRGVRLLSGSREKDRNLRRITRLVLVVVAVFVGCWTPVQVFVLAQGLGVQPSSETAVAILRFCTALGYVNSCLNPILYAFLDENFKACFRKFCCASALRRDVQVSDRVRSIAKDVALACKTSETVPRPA

pEC50: −log10 of the molar value.

The target of the assay is ORL-1 receptor (Homo sapiens, UniProt P41146). Kind of assay: [35S]GTPgS functional assay, ORL-1 receptor membranes. The conditions noted are these: read-out: ORL-1 GTP EC50. Background: GTPγS is a poorly hydrolysed GTP analogue; its binding reports G protein activation.

As a reminder, the pEC50 is the negative decadic logarithm of the EC50, by convention in mol/L. Consider `CCOC(=O)CN1CN(c2ccccc2)C2(CCN(CCC(c3ccccc3)c3ccccc3)CC2)C1=O`, for which the pEC50 was 7.15.
